# Antibody variant affinities, Ab-14 heavy chain, assay 1

Data: MIT Lincoln Laboratory AlphaSeq set, Engelhart et al. 2022, doi:10.1038/s41597-022-01779-4, as distributed in FLAb.

Target peptide (SARS-CoV-2 spike, HR2 region): PDVDLGDISGINAS

Parent: Ab-14, a human scFv built as VH, a 15-residue (Gly4Ser)3 linker, VL. Only the CDRs of the heavy chain vary.
VH: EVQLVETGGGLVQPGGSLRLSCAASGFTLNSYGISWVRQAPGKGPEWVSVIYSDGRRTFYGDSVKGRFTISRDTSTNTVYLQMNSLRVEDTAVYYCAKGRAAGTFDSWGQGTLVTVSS
VL: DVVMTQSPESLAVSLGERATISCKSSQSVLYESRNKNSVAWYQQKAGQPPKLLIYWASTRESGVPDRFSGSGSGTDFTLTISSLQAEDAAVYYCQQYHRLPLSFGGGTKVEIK

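The starting antibody came from a phage panning campaign against this peptide. Library AAYL49 holds single substitutions and randomly drawn double and triple substitutions in the CDRs. Affinity was read by AlphaSeq, a pooled yeast mating assay with surface-displayed partners. Mating (16 h, 30 °C) was followed by selection of diploids and sequencing of their barcodes. The ratio of observed to expected reads was calibrated, replicate by replicate, on BCL2-family standards whose Kd was known from biolayer interferometry. Each pool was mated in three replicate cultures.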

Variants are written as CDR1, CDR2 and CDR3 of the heavy chain (limits as in the source). Parent: GFTLNSYGIS, VIYSDGRRTFYGDSVK, GRAAGTFDS.
Each Kd is an estimate from the mating assay, the geometric mean of the replicates in which the pair was seen; lower is stronger.
"no signal" marks a missing value. The strain was present, yet no cells mated with the target were sequenced in any replicate, which points to weak or no binding.
In this assay the parent's reference entry averaged 4.4 nM; its copy inside this library read 13 µM (one replicate of three).
Nonspecific signal, from three strains lacking the peptide, appeared in 15% of pairings of library AAYL49, centred on 11 µM (5% of these signals below 680 nM); values are not corrected for it.

| CDR-H1 | CDR-H2 | CDR-H3 | Kd (apparent) | replicates with signal |
|---|---|---|---|---|
| GFTLNSYVIS | VIYSDGRRTFYGDHVI | GRAAGTFDS | no signal | 0/3 |
| GFTLNSYGIS | VIYSDGRRTFYGQSVK | GYAAGTFQS | 340 nM | 3/3 |
| GQTLNSYGIS | VIYSDGRRTFYGDIVK | GKAAGTFDS | 100 µM | 1/3 |
| GFTPNSYGIS | VITSDGRRTFMGDSVK | GRAAGTFDS | no signal | 0/3 |
| GFYLNSYGTS | VIYKDGRRTFYGDSVK | GRAAGTFDS | no signal | 0/3 |
| KFTLNSYGIS | VIYIIGRRTFYGDSVK | GRAAGTFDS | no signal | 0/3 |
| GFTLNSYGIS | VIYSDGYRTFPGDSVK | GRAAGQFDS | no signal | 0/3 |
| GFTLNSYVIS | VIYSDGRHTFYGDSVK | GRAAGTFVS | 6.6 µM | 1/3 |
| GFTLNGYMIS | VIYSDGRRTFYGDSVK | GRAAGTFDR | 700 µM | 1/3 |
| GFTLNSYGIS | PIYSEGRRTFYGDSVK | GRAAGTFDF | 7.2 µM | 1/3 |
| GFTLNSYGIS | VIYSDGRRTFRGDSRK | GRAAGTFDF | 9.4 µM | 1/3 |
| GFTRGSYGIS | VIYSDKRRTFYGDSVK | GRAAGTFDS | 6.8 µM | 1/3 |
| GFTLNSYGIS | VIYSDGRRTFFGDHDK | GRAAGTFDS | no signal | 0/3 |
| GFTLESAGIS | VIYSDGRRTFYGPSVK | GRAAGTFDS | 14 µM | 1/3 |
| GFTLNSYMIS | VNYSDGRRTFYGDSVK | GRAAATFDS | 490 nM | 1/3 |
| GFTTNSYGIS | VIYSDGRRTLYGDHVK | GRAAGTFDS | no signal | 0/3 |
| GQTLNSYGIS | VIYSIGRRIFYGDSVK | GRAAGTFDS | 31 µM | 3/3 |
| GFTLKSYGIS | VIYSDLIRTFYGDSVK | GRAAGTFDS | 17 µM | 2/3 |
| GVTLNSYLIS | VIYSDGRRTFYGDSVK | GRAAGTFDS | 6.4 µM | 2/3 |
| GFTNNSYGIS | VIYSDGRRTFYWDSVK | GRAAGTFDV | 6.6 µM | 1/3 |
| GFTLNSYGSS | VIYSDGRRGNYGDSVK | GRAAGTFDS | 41 µM | 1/3 |
| GFYLCSYGIS | VIYSDGRRTFYGDSVK | GRAACTFDS | 20 µM | 2/3 |
| DFTLNSYGIS | VIYSDGRRTFYGDSVC | GRMAGTFDS | 13 µM | 3/3 |
| GFTLNSYGIS | VIYIDGRRTFYGDSVK | KFAAGTFDS | no signal | 0/3 |
| GFTLNSEGIS | VIYSDTRRTFYDDSVK | GRAAGTFDS | 10 µM | 2/3 |
| GFTLNSYGDS | VMYSDGRRTFMGDSVK | GRAAGTFDS | 7.5 µM | 3/3 |
| GFTLNSRFIS | VIYSDGRRTFYGDSVK | GRAAGTFFS | 5.5 µM | 1/3 |
| GFTLNSYGIS | VIYGDGRRTFYCDSVK | GRAAVTFDS | 850 nM | 2/3 |
| GFTLLSYGIS | VIYSDGRRTFYGDSVA | GRAAGTFDS | 320 nM | 3/3 |

Further variants, results first:

| Kd (apparent) | replicates with signal | CDR-H1 | CDR-H2 | CDR-H3 |
|---|---|---|---|---|
| no signal | 0/3 | GFTLNSYGIS | VIYSIGRRFFYGDSVK | GRYAGTFDS |
| no signal | 0/3 | GFTLNSYGIS | VIYSDGRRTFYGVSVK | GRRAGDFDS |
| no signal | 0/3 | GFTLNRYGIS | VIYSDGRRTFYYDSMK | GRAAGTFDS |
| no signal | 0/3 | GFTLNSYGES | VIYSDGRRTFYGDSVK | FRAAGTFDS |
| 5.2 µM | 2/3 | HFTLNSYGIS | VIYWDGRRTFYGDSVT | GRAAGTFDS |
| no signal | 0/3 | GKTLNSYGIS | VIYSCGRRTFYGDSVY | GRAAGTFDS |
| 3.7 µM | 1/3 | GFTLYSYGIS | VIGSDGMRTFYGDSVK | GRAAGTFDS |
| no signal | 0/3 | GFTLNKYGIS | VIYSDGRRTFYGDSVA | GRAAGRFDS |
| no signal | 0/3 | GSTLNSYGIS | VWYSDGRRTFYGDSVK | GRAAMTFDS |
| 5.7 µM | 1/3 | GFTLNSYGIS | VIYSDGRRTFYGDIVK | GRAAKYFDS |
| 4.8 µM | 1/3 | GFTLNSYVIS | VIYSDGNRTFYGDSVK | GFAAGTFDS |
| 130 nM | 1/3 | YFTLNKYGIS | VIYSDGLRTFYGDSVK | GRAAGTFDS |
| 29 µM | 3/3 | GFTLNSYMIS | VIYSDGRRTFYGDSVK | GRAAGQLDS |
| 31 µM | 1/3 | GFTINSYYDS | VIYSDGRRTFYGDSVK | GRAAGTFDS |
| 20 µM | 3/3 | GFTLQSYGIS | VIYSDGRRTFYGDSVK | GRASGTFDS |
| 6.1 µM | 1/3 | GFTLNSYHIS | VIYSDGRRTFYGDSVK | GRRKGTFDS |
| 1.9 µM | 1/3 | GFTLNSYGIS | VYYSDGRRTFYGPSVK | GRAAGWFDS |
| 820 nM | 3/3 | GFTLNSYGIS | VIYSDGVRSFYGDCVK | GRAAGTFDS |
| 3.0 nM | 3/3 | GFTLDSYGIS | VMYSDGRRTFYIDSVK | GRAAGTFDS |
| 35 nM | 3/3 | GFTLNSYGIS | VIYSDGQRTFYADSVK | GRAAGTNDS |
| 2.1 nM | 3/3 | GFTLNDYGIS | VIYSDGRRTFYSDSVK | DRAAGTFDS |
| no signal | 0/3 | GFTLNSYGIS | VIYSDGRETFYGDSVQ | RRAAGTFDS |
| no signal | 0/3 | GFTLNSYGIS | VIYSDIRRYFYGDTVK | GRAAGTFDS |
| no signal | 0/3 | GFTLNDYGIS | VIYSDNRRTFYGDSEK | GRAAGTFDS |
| no signal | 0/3 | GTTLNSYGIS | VIYSDVRRTFYGDSVK | GRAAGTFDD |
| 9.4 µM | 1/3 | GFTLNVYGIS | VIPSDGRRTFYGDSVY | GRAAGTFDS |
| 7.1 µM | 1/3 | GGTLNSYGIC | VIYTDGRRTFYGDSVK | GRAAGTFDS |
| no signal | 0/3 | GFTLNSYGIS | VIYSDGRRGFYLDSVK | GRAAGTFMS |
| no signal | 0/3 | GFTLNSYGIS | VIYSDGRRTFYGDRVK | GRAAWGFDS |